Results: patent publication US8822500B2 (dated 2014)

Sequences of proteins named here, by UniProt entry; tags and fusion partners are left off. Residues count along the entry.
UniProt P04629, 33-796: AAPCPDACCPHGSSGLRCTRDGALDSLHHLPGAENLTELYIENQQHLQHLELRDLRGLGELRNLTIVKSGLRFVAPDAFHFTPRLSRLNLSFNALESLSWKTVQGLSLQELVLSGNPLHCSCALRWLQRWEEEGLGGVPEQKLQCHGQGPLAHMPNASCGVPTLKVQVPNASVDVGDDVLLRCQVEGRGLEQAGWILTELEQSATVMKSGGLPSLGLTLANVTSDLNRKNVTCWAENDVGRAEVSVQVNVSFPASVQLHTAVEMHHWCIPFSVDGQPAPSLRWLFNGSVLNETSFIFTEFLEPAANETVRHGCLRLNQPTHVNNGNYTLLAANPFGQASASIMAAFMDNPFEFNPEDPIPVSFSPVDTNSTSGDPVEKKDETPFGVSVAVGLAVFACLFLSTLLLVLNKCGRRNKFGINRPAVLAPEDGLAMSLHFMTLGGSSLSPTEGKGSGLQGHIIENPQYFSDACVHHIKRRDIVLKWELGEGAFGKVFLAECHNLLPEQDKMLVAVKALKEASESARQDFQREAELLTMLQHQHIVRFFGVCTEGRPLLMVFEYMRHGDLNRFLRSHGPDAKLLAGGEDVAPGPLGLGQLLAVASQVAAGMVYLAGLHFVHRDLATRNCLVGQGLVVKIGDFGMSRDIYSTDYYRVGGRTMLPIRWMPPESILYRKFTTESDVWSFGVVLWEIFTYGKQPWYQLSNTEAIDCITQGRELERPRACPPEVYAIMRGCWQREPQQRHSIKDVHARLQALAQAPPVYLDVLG
UniProt Q9UM73, 19-1620: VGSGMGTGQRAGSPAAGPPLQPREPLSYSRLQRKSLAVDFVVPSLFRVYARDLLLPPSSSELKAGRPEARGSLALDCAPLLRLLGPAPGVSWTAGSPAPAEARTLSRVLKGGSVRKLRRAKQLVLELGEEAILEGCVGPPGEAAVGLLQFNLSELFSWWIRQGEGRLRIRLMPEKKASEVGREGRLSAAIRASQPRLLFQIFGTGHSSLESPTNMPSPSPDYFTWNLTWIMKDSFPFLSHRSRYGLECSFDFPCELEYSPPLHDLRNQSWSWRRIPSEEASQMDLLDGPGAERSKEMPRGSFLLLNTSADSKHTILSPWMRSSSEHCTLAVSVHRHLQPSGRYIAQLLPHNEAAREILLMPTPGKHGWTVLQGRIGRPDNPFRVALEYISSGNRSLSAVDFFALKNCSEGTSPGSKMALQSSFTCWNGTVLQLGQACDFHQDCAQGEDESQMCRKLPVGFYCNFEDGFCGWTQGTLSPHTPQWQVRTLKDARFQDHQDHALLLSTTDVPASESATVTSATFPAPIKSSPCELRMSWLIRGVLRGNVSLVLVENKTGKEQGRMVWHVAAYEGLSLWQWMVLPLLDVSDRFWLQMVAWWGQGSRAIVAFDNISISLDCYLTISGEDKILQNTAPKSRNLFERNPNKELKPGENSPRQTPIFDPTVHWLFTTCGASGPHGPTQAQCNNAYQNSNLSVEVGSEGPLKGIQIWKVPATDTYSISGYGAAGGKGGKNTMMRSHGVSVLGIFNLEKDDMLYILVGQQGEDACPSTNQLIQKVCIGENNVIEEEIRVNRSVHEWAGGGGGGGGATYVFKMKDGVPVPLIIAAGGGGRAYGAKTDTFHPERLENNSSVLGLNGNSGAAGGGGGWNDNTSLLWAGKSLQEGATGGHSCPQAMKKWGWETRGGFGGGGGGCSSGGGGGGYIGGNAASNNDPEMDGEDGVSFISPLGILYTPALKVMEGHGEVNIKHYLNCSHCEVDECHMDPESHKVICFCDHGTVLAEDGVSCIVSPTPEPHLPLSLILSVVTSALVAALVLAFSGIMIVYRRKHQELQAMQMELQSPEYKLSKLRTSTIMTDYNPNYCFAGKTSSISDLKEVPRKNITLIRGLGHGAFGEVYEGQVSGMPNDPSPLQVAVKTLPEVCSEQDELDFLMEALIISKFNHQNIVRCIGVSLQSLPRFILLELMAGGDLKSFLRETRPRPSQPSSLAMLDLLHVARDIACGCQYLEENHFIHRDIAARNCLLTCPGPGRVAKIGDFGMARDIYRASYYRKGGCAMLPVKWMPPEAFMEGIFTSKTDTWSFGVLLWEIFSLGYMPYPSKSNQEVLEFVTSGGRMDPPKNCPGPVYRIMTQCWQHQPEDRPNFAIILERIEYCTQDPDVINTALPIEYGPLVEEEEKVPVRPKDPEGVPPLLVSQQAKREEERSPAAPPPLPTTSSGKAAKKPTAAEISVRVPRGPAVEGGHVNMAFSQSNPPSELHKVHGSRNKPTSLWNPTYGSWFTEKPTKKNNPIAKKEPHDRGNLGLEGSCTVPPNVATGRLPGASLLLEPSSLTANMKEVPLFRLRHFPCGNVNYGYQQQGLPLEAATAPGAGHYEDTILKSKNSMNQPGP
UniProt P06213, 28-1382: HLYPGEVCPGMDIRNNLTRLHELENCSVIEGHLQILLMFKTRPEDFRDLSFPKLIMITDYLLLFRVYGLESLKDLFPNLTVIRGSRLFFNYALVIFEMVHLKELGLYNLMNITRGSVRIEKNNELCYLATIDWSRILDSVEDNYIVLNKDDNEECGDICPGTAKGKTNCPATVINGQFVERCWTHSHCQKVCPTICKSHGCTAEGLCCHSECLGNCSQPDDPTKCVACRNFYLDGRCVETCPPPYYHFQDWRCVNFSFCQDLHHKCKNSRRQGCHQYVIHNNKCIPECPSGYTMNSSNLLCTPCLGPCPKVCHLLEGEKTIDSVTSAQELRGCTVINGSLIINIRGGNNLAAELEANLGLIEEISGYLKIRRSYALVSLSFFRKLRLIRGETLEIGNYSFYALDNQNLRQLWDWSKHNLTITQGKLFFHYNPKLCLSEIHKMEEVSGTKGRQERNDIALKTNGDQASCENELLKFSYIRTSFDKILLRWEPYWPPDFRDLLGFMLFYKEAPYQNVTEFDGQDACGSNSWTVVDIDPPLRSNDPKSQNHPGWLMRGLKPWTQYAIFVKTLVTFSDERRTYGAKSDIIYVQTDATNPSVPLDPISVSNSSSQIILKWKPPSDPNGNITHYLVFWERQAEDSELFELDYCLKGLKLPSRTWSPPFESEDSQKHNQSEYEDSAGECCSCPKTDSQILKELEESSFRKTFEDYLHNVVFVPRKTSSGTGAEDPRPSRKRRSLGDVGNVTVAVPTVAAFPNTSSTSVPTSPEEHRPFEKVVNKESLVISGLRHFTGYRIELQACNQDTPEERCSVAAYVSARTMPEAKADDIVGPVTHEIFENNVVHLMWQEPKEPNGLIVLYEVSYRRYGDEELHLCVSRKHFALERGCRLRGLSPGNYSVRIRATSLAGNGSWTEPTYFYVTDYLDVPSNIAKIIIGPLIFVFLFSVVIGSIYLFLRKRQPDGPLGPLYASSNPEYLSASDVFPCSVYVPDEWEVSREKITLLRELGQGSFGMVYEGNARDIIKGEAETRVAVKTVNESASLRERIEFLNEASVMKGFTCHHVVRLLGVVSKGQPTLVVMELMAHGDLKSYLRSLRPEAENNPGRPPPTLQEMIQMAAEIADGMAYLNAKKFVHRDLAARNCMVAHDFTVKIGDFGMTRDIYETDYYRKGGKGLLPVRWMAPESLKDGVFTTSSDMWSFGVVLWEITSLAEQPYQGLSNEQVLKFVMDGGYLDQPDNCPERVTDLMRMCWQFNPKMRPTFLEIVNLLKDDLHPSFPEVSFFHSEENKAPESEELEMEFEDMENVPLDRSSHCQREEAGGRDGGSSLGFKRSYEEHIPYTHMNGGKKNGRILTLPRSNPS

Tests used:
Assay in all cases: In vitro kinase activity assay (LANCE TR-FRET)
Format in all cases: biochemical
[1] = biological target: TrkA (Homo sapiens (Human), UniProt P04629); details: TrKA IC50(μM);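 further: kinase reaction with poly-GT peptide substrate and ATP, phosphorylated product quantified by time-resolved FRET, eleven-point dose curves from 10^−11 to 10^−5 M in triplicate, DMSO as negative control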
[2] = biological target: ALK (Homo sapiens (Human), UniProt Q9UM73); details: read-out: ALK IC50;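 further: kinase reactions with ATP and a poly-GT peptide substrate, phosphorylated product read by time-resolved FRET, 11-point curve from 10^−11 to 10^−5 M, DMSO as negative control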
[3] = biological target: INSR (Homo sapiens (Human), UniProt P06213); details: read-out: IRK IC50

Work on `C[C@@H](Cc1c(F)c(F)cc(F)c1F)Nc1cc[nH]c(=O)c1-c1nc2cc3c(cc2[nH]1)C(=O)N(CCN(C)C)C3` [Compound 1, (S)-6-(2-(Dimethylamino)ethyl)-2-(2-oxo-4-((1-(2,3,5,6-tetrafluorophenyl)propan-2-yl)amino)-1,2-dihydropyridin-3-yl)-6,7-dihydroimidazo[4,5-f]isoindol-5(3H)-one] yielded an IC50 [1] of 0.001 µM.

With Staurosporine [reference compound] the IC50 [2] was 2 nM and the IC50 [3] was 42 nM.
